This is a selection; strong and weak results do not stand in their true shares. Active and inactive are the calls of the source. Rule as the data show it: active = activation above about 27%; inactive = the rest.

Chains of the proteins cited; added tags and fusions are not shown.
UniProt P49146, whole entry: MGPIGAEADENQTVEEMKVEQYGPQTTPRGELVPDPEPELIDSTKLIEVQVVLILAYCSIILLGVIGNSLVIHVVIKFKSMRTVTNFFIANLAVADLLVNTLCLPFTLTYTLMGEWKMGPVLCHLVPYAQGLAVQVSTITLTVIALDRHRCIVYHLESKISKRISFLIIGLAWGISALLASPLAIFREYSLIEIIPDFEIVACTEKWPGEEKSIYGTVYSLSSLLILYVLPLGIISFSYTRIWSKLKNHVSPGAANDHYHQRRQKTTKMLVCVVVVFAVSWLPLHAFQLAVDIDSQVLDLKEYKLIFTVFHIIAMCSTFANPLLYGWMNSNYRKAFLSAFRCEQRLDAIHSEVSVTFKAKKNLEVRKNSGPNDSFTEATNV

The target in the assay is Neuropeptide Y receptor type 2 (Homo sapiens) (UniProt P49146). As to the kind of experiment: NPY-Y2 potentiators or agonists, primary screen, cell-based (AID 1359).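 Also: cells stimulated with NPY near EC25 plus isoproterenol at EC100; 0% = vehicle plus submaximal agonist and 100% = vehicle plus saturating agonist.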 Particulars: cells expressing NPY-Y2, potentiator/agonist read-out; at 3.6 µM; stronger effect = higher value.
Consider `O=[N+]([O-])c1cc([N+](=O)[O-])c(Nc2nnnn2CCO)c([N+](=O)[O-])c1`, for which the activation was inactive: -7.28%.

Regarding `CCOC(=O)C(CC)C1=NC(C)(C)Cc2ccccc21.O=[N+]([O-])c1cc([N+](=O)[O-])c(O)c([N+](=O)[O-])c1` (configuration not stated), the activation was inactive: -28.5%. Consider `COc1ccccc1OP(C)(=O)Nc1c(C)cccc1C` (configuration not stated), for which the activation is inactive: -8.75%. `CN1CCCCC1COC(=O)C1(O)c2ccccc2CCc2ccccc21` (configuration not stated): the activation was inactive: -13.2%.

Turning to `CCCOc1ccc(NP(C)(=O)Oc2ccc(Cl)cc2)cc1` (configuration not stated), the activation was inactive: -17.9%. To `CP(=O)(Nc1ccc(SC(F)(F)F)cc1)Oc1ccccc1` (configuration not stated) belongs inactive: 14.8%; to `O=[N+]([O-])c1cc([N+](=O)[O-])c(-n2nnc3ccccc32)c([N+](=O)[O-])c1`, inactive: -7.07%. To `Cc1nc2ccc3ccccc3c2s1.O=[N+]([O-])c1cc([N+](=O)[O-])c(O)c([N+](=O)[O-])c1` belongs inactive: -7.43%. As to `COc1ccccc1OP(C)(=O)Nc1cccc(Br)c1` (configuration not stated), the activation was inactive: -3.28%. Take `CCOC(=O)c1ccc(NP(C)(=O)Oc2cc(C)cc(C)c2)cc1` (configuration not stated): the activation is inactive: -13%.

For `Cc1cc(C)cc(OP(C)(=O)Nc2ccc(C)cc2C)c1` (configuration not stated), the activation was inactive: -10.4%. Take `Cc1ccc(C)c(NP(C)(=O)Oc2ccccc2)c1` (configuration not stated): the activation is inactive: 2.14%. With `Cc1cc(C)cc(OP(C)(=O)Nc2ccccn2)c1` (configuration not stated), the activation is inactive: -2.19%. In the case of `CP(=O)(Nc1cccc(Br)c1)Oc1ccccc1` (configuration not stated), the activation is inactive: -0.82%. In the case of `O=C(O)c1cccc(Nc2c([N+](=O)[O-])cc([N+](=O)[O-])cc2[N+](=O)[O-])c1`, the activation is inactive: 4.23%. As for `CC1=NCCc2c1[nH]c1ccccc21.O=[N+]([O-])c1cc([N+](=O)[O-])c(O)c([N+](=O)[O-])c1`, the activation is inactive: -0.85%. With `O=[N+]([O-])c1ccc2c(c1)C=Nc1ccccc1O2` the figure was inactive: 17.4%. Consider `CC(C)(C)c1ccc(OP(C)(=O)Nc2ccc(SC(F)(F)F)cc2)cc1` (configuration not stated), for which the activation was inactive: 1.65%. For `Cc1cccc(C)c1OP(C)(N)=O` (configuration not stated), the activation was inactive: -22.2%. On to `COc1ccccc1OP(C)(=O)Nc1ccc(C)cc1` (configuration not stated), for which the activation is inactive: 6.5%. With `Cc1ccc(NP(C)(=O)Oc2ccccc2)c(C)c1` (configuration not stated) the figure was inactive: 6.66%; with `CCOC(=O)c1ccc(NP(C)(=O)Oc2ccccc2)cc1` (configuration not stated), inactive: 6.79%. As to `Cc1cc(C)cc(OP(C)(N)=O)c1` (configuration not stated), the activation is inactive: -5.86%. In the case of `COc1ccccc1OP(C)(=O)Nc1cc(Cl)ccc1C` (configuration not stated), the activation was inactive: 1.44%. Regarding `COc1ccc(OP(C)(=O)Nc2cccc(F)c2)cc1` (configuration not stated), the activation is inactive: 1.44%. For the compound `CCN(CC)CCCOC(=O)C(O)(c1ccccc1)c1ccccc1`, the activation was inactive: -9.49%. On to `Cc1cccc(C)c1OP(C)(=O)Nc1ccc(SC(F)(F)F)cc1` (configuration not stated), for which the activation was inactive: 7.27%. For the compound `CP(=O)(Nc1ccc(SC(F)(F)F)cc1)Oc1ccc(Cl)cc1` (configuration not stated), the activation was inactive: -1.58%. With `CP(=O)(Oc1ccccc1)OC(c1ccccc1)C(F)(F)F` (configuration not stated) the figure was inactive: 5.57%; with `CP(=O)(NC(=O)Nc1ccccc1)Oc1ccccc1` (configuration not stated), inactive: -4.87%; with `CCc1ccc(OP(C)(=O)N2CCN(c3ccc([N+](=O)[O-])cc3)CC2)cc1` (configuration not stated), inactive: -5.05%. As to `Cc1cc(C)cc(OP(C)(=O)Nc2ccc(SC(F)(F)F)cc2)c1` (configuration not stated), the activation is inactive: -10.2%. Consider `CCOC(=O)c1ccc(NP(C)(=O)Oc2ccc(OC)cc2)cc1` (configuration not stated), for which the activation was inactive: 9.42%. Turning to `CCOP(C)(=S)SCC(=O)NC(C)C(=O)O` (configuration not stated), the activation is inactive: 2.68%.

`CP(=O)(Nc1ccccn1)Oc1ccc(Cl)cc1` (configuration not stated): the activation was inactive: -8.38%. Regarding `CP(=S)(Nn1cnnc1)Oc1ccccc1` (configuration not stated), the activation was inactive: -4.08%. For the compound `CP(=O)(Nc1ccccc1Br)Oc1ccccc1` (configuration not stated), the activation is inactive: 8.58%. For the compound `COc1ccccc1OP(C)(=O)Nc1ccccc1` (configuration not stated), the activation is inactive: -0.14%. For `CCOC(=O)c1ccc(NP(C)(=O)Oc2ccc(Cl)cc2)cc1` (configuration not stated), the activation is inactive: 5.21%.

Regarding `CP(=O)(OC12CC3CC(CC(C3)C1)C2)OC12CC3CC(CC(C3)C1)C2`, the activation is inactive: 5.5%. Turning to `CCN(CC)CC(O)COC(=O)C(O)(c1ccccc1)C1CCCCC1` (configuration not stated), the activation was inactive: 4.04%. With `COc1ccc(OP(C)(=O)Nc2ccc(Br)cc2)cc1` (configuration not stated), the activation was inactive: -2.5%.

Regarding `COc1ccccc1OP(C)(=O)Nc1c(C)n(C)n(-c2ccccc2)c1=O` (configuration not stated), the activation is inactive: -14.1%. For `O=C(OCCCN1CCCC1)C(O)(c1ccccc1)C1CCCCC1` (configuration not stated), the activation was inactive: -15.8%. In the case of `CP(=O)(Oc1ccccc1)N1CCOC1=O` (configuration not stated), the activation is inactive: -0.07%. With `CCc1ccc(OP(C)(=O)Nc2cccnc2)cc1` (configuration not stated) the figure was inactive: -14.9%; with `COc1ccccc1OP(C)(=O)Nc1ccccc1Br` (configuration not stated), inactive: 2.46%. For `CC(C)(C)c1ccc(OP(C)(=O)O)cc1`, the activation is inactive: -18.7%.

For the compound `CP(=O)(Nc1ccc(Cl)cc1)Oc1ccc(F)cc1` (configuration not stated), the activation was inactive: 3.15%. Take `CN(C)C(=O)c1c([N+](=O)[O-])cc([N+](=O)[O-])cc1[N+](=O)[O-]`: the activation is inactive: 2.88%. `COc1ccccc1OP(C)(=O)Nc1ccc(Br)cc1` (configuration not stated): the activation was inactive: -2.62%. To `COc1ccc(OP(C)(=O)Nc2ccccn2)cc1` (configuration not stated) belongs inactive: 5.71%. With `CN(C)CCOC(=O)C(O)(c1ccccc1)C1CCCC1` (configuration not stated) the figure was inactive: 1.8%; with `Cc1c(NP(C)(=O)Oc2ccc(C(C)C)cc2)c(=O)n(-c2ccccc2)n1C` (configuration not stated), inactive: -3.77%; with `O=[N+]([O-])c1cc([N+](=O)[O-])c(Nc2ccccn2)c([N+](=O)[O-])c1`, inactive: 0.58%. Regarding `CP(=O)(Nc1ccccn1)Oc1ccccc1` (configuration not stated), the activation was inactive: 24.5%.

As for `COc1ccccc1OP(C)(=O)Nc1ccc(C)cc1C` (configuration not stated), the activation was inactive: -1.64%. With `CCc1ccc(OP(C)(=O)O)cc1` the figure was inactive: -3.47%. For `Cc1cc(C)cc(OP(C)(=O)Nc2cccc(C(F)(F)F)c2)c1` (configuration not stated), the activation is inactive: 6.88%. On to `COc1ccccc1OP(C)(=O)Nc1ccc(C)c(C)c1` (configuration not stated), for which the activation is inactive: 11.5%.

For `COc1ccc(OP(C)(=O)Nc2ccccc2Br)cc1` (configuration not stated), the activation was inactive: 3.1%. In the case of `Cc1nc2ccc3ccccc3c2o1.O=[N+]([O-])c1cc([N+](=O)[O-])c(O)c([N+](=O)[O-])c1`, the activation was inactive: 5.03%.

These data come from PubChem BioAssay AID1359 (The Scripps Research Institute Molecular Screening Center, 2008).
